Laboratory results reported in paper PMC8386128, “Evaluation of Short-Chain Antimicrobial Peptides With Combined Antimicrobial and Anti-inflammatory Bioactivities for the Treatment of Zoonotic Skin Pathogens From Canines” (Frontiers in Microbiology, 2021).
No end group written: not given here.

Test system: sheep and mouse erythrocytes
Conditions: red cells of sheep, 2 h

AAVTRRILCWFA-NH2 [Allomyrinasin]
minimum hemolytic concentration (MHC), required to cause 10% hemolysis: 128 to 256 µg/mL
